Earlier results in patent US20230189804A1, “PROHEXADIONE PLANT GROWTH REGULATOR COMPOSITION” (Nufarm Americas, Inc., priority 2021, published 2023).

Conditions: distilled water at 20° C.

calcium 3,5-dioxo-4-(1-oxopropyl)cyclohexanecarboxylate [Prohexadione calcium]
solubility: about 786 mg/I
